We go through 1 molecule from patent US20190070183A1, “Targeting Casein Kinase-1 and PI3K/AKT/mTOR Pathways for Treatment of c-Myc-Overexpressing Cancers, Organ Transplant Associated Complications and Autoimmune Diseases” (The Trustees of Columbia University in the City of New York, priority 2015, published 2019).

Sequences of proteins named here, by UniProt entry; tags and fusion partners are left off. A change or cut given only in a name is not applied to a line headed by its entry.
UniProt P42336, whole entry: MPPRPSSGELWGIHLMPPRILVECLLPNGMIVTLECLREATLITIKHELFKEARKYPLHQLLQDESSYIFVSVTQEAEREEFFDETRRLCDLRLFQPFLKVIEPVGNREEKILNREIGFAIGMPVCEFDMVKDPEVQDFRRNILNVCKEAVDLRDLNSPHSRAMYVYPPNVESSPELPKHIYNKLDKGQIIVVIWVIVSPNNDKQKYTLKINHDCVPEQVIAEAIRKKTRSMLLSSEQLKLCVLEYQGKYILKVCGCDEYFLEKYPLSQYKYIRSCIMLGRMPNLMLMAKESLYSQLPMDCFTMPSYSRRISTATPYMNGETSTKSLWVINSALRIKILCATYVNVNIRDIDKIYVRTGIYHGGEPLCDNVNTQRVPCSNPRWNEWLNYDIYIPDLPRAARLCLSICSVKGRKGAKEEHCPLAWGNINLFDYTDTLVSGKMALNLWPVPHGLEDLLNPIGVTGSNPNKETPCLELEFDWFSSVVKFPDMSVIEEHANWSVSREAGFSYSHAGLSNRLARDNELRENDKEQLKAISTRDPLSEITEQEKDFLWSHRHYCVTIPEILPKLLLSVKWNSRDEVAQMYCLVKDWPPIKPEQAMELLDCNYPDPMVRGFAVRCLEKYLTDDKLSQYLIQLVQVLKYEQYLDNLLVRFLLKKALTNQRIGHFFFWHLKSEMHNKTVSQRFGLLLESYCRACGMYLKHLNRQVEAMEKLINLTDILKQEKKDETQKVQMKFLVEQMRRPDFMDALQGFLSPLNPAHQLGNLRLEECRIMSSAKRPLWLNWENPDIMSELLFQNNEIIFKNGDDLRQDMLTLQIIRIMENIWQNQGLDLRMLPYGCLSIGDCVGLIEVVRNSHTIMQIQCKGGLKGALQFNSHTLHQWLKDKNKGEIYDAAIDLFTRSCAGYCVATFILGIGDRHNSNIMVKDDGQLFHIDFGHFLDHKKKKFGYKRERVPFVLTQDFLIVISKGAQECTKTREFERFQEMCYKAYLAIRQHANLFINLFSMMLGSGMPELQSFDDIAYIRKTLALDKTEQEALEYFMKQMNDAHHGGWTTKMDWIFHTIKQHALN
UniProt P42338: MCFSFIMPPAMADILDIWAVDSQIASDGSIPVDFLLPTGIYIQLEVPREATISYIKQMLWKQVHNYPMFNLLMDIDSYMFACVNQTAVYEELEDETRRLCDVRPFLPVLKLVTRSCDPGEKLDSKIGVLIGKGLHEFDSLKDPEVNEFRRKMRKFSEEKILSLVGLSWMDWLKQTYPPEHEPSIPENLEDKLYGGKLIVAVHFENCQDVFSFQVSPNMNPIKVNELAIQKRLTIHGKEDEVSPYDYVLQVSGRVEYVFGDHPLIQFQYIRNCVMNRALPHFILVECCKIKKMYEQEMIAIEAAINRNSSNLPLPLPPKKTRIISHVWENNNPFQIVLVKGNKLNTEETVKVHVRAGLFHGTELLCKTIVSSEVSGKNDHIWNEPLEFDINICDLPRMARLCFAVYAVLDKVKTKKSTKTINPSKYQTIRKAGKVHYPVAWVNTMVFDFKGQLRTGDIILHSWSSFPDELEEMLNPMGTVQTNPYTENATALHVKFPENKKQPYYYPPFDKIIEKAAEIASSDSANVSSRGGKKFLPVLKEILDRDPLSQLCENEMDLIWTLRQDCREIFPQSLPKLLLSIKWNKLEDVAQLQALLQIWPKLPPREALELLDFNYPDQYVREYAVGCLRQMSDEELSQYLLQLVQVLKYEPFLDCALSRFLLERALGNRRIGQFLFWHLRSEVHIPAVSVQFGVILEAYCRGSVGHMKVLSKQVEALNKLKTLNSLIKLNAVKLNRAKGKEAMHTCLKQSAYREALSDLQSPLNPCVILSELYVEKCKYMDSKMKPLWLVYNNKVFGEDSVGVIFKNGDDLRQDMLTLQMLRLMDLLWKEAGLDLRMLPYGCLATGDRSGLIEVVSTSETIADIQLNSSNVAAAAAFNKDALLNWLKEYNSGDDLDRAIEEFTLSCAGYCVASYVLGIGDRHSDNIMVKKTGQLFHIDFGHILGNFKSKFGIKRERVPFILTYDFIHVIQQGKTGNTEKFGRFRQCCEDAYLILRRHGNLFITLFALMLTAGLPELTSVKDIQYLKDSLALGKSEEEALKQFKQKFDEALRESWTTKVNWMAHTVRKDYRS
UniProt P48736: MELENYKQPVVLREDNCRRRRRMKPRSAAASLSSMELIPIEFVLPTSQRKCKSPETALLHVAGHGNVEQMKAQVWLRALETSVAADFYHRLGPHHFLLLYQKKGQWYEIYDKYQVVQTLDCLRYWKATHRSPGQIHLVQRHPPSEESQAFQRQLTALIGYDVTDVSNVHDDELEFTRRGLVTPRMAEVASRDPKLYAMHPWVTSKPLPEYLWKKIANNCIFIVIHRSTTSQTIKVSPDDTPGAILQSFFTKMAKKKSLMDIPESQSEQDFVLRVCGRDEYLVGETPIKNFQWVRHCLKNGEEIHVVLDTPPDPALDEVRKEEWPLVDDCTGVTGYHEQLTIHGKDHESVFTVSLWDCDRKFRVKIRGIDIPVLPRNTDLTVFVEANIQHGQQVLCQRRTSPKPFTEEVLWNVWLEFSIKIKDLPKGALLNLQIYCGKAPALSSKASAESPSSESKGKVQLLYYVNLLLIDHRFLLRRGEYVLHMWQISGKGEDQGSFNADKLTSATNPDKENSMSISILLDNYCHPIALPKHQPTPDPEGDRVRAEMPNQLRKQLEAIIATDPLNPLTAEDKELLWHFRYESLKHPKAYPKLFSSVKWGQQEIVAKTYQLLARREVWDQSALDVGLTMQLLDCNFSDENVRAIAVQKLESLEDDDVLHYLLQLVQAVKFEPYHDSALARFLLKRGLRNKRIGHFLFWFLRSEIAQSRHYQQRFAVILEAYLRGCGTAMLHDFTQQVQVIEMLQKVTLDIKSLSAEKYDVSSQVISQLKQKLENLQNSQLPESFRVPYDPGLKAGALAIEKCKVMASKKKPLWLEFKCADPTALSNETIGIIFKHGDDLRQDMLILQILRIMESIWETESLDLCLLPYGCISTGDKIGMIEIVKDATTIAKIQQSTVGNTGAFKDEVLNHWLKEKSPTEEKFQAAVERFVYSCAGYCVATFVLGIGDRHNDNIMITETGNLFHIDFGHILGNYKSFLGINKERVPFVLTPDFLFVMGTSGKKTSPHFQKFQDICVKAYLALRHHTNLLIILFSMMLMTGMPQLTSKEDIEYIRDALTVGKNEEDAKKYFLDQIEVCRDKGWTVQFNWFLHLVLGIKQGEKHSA
UniProt P48730: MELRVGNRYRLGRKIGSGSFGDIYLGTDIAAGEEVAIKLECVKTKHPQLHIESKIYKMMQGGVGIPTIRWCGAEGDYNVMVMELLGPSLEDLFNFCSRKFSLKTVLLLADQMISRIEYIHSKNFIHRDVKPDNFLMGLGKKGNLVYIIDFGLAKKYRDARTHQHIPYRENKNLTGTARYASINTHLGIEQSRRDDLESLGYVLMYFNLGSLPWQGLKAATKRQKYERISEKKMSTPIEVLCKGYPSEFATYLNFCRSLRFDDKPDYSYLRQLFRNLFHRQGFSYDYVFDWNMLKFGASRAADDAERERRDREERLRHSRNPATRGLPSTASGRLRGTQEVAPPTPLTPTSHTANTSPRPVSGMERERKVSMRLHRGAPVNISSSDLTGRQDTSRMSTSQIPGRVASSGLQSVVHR
UniProt P49674: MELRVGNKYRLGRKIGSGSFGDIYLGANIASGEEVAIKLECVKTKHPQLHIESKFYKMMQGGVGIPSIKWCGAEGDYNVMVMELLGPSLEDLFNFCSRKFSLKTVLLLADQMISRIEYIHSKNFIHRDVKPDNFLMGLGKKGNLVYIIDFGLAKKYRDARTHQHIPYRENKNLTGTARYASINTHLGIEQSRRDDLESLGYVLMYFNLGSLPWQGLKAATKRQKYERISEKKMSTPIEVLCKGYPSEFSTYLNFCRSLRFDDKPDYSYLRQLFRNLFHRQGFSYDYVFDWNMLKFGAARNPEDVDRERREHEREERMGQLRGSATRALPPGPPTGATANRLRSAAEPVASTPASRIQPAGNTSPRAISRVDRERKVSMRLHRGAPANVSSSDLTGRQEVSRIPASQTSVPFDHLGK

In one test the target is PI3Kα (Homo sapiens, UniProt P42336). As to conditions: selectivity of δ over α, cell free.
The target in a further test is PI3Kβ (Homo sapiens, UniProt P42338). As to conditions: selectivity of δ over β, cell free.
In another test the target is PI3Kγ (Homo sapiens, UniProt P48736). As to conditions: selectivity of δ over γ, cell free.
Test [1] concerns the target CK1ε, which is more than 97% identical to CK1ε in their kinase domains (Homo sapiens, UniProt P48730). The conditions noted are these: cell free, 1 μM.
The next test addresses CK1ε (Homo sapiens, UniProt P49674). The experiment in a line: Kinome profiling (Reaction Biology, radioisotope filter binding). The conditions noted are these: read-out: inhibition of kinase activity of CK1 epsilon, cell free, 1 μM.

As a reminder, the inhibition is the share of the control response that was lost under treatment. For the molecule `CC(C)Oc1ccc(-c2nn([C@@H](C)c3oc4ccc(F)cc4c(=O)c3-c3cccc(F)c3)c3ncnc(N)c23)cc1F` [TGR-1202], the “IC50(PI3Kα)/IC50(PI3Kδ)” value on PI3Kα stood at 10000 times. Further, the “IC50(PI3Kβ)/IC50(PI3Kδ)” value against PI3Kβ came to 50 times. The “IC50(PI3Kγ)/IC50(PI3Kδ)” value at PI3Kγ was found to be 48 times. The “inhibition of kinase activity” value in test [1] is “not inhibited”. For the same molecule, the inhibition at 1 µM at CK1ε is > 60%.
